Read-outs that look alike come from different tables or passages of the source.
Legend:
[1] = target: T1, Rat recombinant PDE10A (rPDE10A2) (Rattus norvegicus, UniProt Q9QYJ6); experiment: In vitro assay PDE10A (SPA, 3H-cAMP); assay type: biochemical
T1 construct: inferred from the Ni metal chelate purification; made in house; host or cells: Sf9 insect cells (baculovirus)
T1 sequence (Q9QYJ6 1-794): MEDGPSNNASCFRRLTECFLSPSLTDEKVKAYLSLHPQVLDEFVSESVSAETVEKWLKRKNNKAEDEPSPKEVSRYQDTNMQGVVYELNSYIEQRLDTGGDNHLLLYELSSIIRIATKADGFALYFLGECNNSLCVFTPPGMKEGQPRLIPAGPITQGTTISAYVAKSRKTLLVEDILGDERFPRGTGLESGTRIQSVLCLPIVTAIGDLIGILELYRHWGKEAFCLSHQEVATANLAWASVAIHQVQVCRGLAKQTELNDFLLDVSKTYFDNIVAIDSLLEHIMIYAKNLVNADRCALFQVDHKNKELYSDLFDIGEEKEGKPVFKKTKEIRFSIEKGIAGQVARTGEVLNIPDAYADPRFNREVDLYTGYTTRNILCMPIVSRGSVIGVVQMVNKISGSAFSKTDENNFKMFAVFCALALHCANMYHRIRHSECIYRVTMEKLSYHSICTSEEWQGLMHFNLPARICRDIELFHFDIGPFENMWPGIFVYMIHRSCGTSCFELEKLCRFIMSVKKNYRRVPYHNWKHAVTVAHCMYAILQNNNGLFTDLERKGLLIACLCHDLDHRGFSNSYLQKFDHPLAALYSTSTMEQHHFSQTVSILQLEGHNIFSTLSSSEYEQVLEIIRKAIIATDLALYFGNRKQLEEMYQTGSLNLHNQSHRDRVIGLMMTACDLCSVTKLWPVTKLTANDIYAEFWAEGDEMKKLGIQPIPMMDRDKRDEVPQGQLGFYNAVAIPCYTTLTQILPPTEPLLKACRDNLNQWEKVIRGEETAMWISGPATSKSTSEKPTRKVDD
Experimental: Rat recombinant PDE10A (rPDE10A2) was expressed in Sf9 cells using a recombinant rPDE10A baculovirus construct. Cells were harvested after 48 h of infection and the rPDE10A protein was purified by metal chelate chromatography on Ni-sepharose 6FF. Tested compounds were dissolved and diluted in 100% DMSO to a concentration 100 fold of the final concentration in the assay. Compound dilutions (0.4 μl) were added in 384 well plates to 20 μl of incubation buffer (50 mM Tris pH 7.8, 8.3 mM MgCl2, 1.7 mM EGTA). 10 μl of rPDE10A enzyme in incubation buffer was added and the reaction was started by addition of 10 μl substrate to a final concentration of 60 nM cAMP and 0.008 μCi ^3H-cAMP. The reaction was incubated for 60 minutes at room temperature. […] After sedimentation of the beads during 30 minutes the radioactivity was measured in a Perkin Elmer Topcount scintillation counter and results were expressed as cpm. For blanc values the enzyme was omitted from the reaction and replaced by incubation buffer. Control values were obtained by addition of a final concentration of 1% DMSO instead of compound. The same assay principle is applied for the measurement of the affinity of the compound for other members of the PDE family with appropriate modifications in incubation buffer, substrate concentration, incubation time and stop solution.

[2] = test system: female hooded-Lister rats; experiment: Object recognition test (NOR) after sub-chronic PCP; assay type: in vivo, rat; settings: mean
Experimental: 60 female hooded-Lister rats (Charles River, UK) were used as subjects for these studies and weighed 248 g±20 g. Rats were allowed at least a 7-day acclimatization period to the animal unit prior to commencement of experimentation. Rats were housed in groups of 5 under standard laboratory conditions under a 12 h light:dark cycle, lights on at 0700 h. All testing was carried out in the light phase. Food and water were freely provided. All experiments were conducted in accordance with the Animals Scientific Procedures Act, U.K. 1986 and were approved by the University of Bradford ethical review panel.
40 mg of test compound was dissolved in 5 ml of 40% hydroxypropyl β-cyclodextrin (HPBC) solution. […] 2 ml of sterile water was added and the pH measured and adjusted with NaOH solution (0.1N) to obtain pH ˜4. […] 5 ml of sterile water was added and the pH measured and adjusted with NaOH solution (0.1N) to obtain pH ˜4. […]
Certain pre-clinical tests allow the observation of relatively subtle cognitive deficits in the rat that resemble cognitive symptoms in subjects with schizophrenia. The cognitive deficits observed are seen in behaviours such as episodic memory, which can be measured by recognition tasks such as the novel object recognition (NOR) paradigm. […] Object recognition in rats can be measured as the difference in time spent exploring the familiar and the new object. […]

SMILES: COCCc1ccc(-c2c(C)nc3c(N4CCOCC4)ccnn23)cn1 [compound 1, 3-[6-(2-methoxyethyl)-3-pyridinyl]-2-methyl-8-(4-morpholinyl)-imidazo[1,2-b]pyridazine]
- IC50 ([1]; Table 4 in vitro selectivity, read-out: PDE 10A2 (expressed as pIC50) (converted)): 57.5 nM
- IC50 ([1]; pIC50 corresponds to the −log IC50 expressed in mol/L, read-out: PDE10A2 pIC50 (converted)): 57.5 nM
- DI (discrimination index) ([2]; PCP + 0.3 mg/kg p.o.): 0.3014
- DI (discrimination index) ([2]; PCP + 1 mg/kg p.o.): 0.3335
